Literature values in patent publication US20050227929A1, “Combination therapy comprising a Cox-2 inhibitor and an antineoplastic agent” (priority 2003, published 2005).

System: Hodgkin's lymphoma

B1: Zevalin (conjugate, chains of the INN, looked up)
heavy: QAYLQQSGAELVRPGASVKMSCKASGYTFTSYNMHWVKQTPRQGLEWIGAIYPGNGDTSYNQKFKGKATLTVDKSSSTAYMQLSSLTSEDSAVYFCARVVYYSNSYWYFDVWGTGTTVTVSAPSVYPLAPVCGDTTGSSVTLGCLVKGYFPEPVTLTWNSGSLSSGVHTFPAVLQSDLYTLSSSVTVTSSTWPSQSITCNVAHPASSTKVDKKIEPRGPTIKPCPPCKCPAPNLLGGPSVFIFPPKIKDVLMISLSPIVTCVVVDVSEDDPDVQISWFVNNVEVHTAQTQTHREDYNSTLRVVSALPIQHQDWMSGKEFKCKVNNKDLPAPIERTISKPKGSVRAPQVYVLPPPEEEMTKKQVTLTCMVTDFMPEDIYVEWTNNGKTELNYKNTEPVLDSDGSYFMYSKLRVEKKNWVERNSYSCSVVHEGLHNHHTTKSFSR
light: QIVLSQSPAILSASPGEKVTMTCRASSSVSYMHWYQQKPGSSPKPWIYAPSNLASGVPARFSGSGSGTSYSLTISRVEAEDAATYYCQQWSFNPPTFGAGTKLELKRADAAPTVFIFPPSDEQLKSGTASVVCLLNNFYPREAKVQWKVDNALQSGNSQESVTEQDSKDSTYSLSSTLTLSKADYEKHKVYACEVTHQGLSSPVTKSFN
modifications: tiuxetan chelator, yttrium-90
Question: What does the source list for B1?
Answer: overall response rate (Hodgkin's lymphoma patients receiving 0.2, 0.3 or 0.4 mCi/kg in combination with rituximab): rate is 82%; overall response rate at the highest dose (Hodgkin's lymphoma patients, highest dose (0.4 mCi/kg) in combination with rituximab): (81% at the
